# Source: publication PMC3307802 (MedChemComm, 2011)
# Protein sequences, listed by entry. Tags and fused reporters are not part of them. Lines headed by an entry give the natural chain unless they say otherwise; changes in a name come on top.
# UniProt P41145: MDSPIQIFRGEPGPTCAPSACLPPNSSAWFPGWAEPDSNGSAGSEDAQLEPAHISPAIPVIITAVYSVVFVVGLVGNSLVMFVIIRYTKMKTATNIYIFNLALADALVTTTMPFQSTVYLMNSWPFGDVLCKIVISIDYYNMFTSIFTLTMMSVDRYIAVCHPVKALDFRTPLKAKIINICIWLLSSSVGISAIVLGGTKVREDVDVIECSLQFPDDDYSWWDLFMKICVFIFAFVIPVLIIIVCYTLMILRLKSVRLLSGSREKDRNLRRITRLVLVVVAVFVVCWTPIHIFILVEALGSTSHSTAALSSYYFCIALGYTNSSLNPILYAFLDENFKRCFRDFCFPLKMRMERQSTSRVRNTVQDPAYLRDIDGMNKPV
# Target: KOP receptors (Homo sapiens, UniProt P41145)
# Assay: biochemical
compound,measurement,value
CCO[C@@H](C)O[C@H]1C[C@@H](C(=O)OC)[C@]2(C)CC[C@H]3C(=O)O[C@H](c4ccoc4)C[C@]3(C)[C@H]2C1=O [Compound 8a],EC50,150 ± 14 nM
